Measurements published in patent US6559167B1, “Prodrugs of proton pump inhibitors” (Regents of the University of California, priority 1998, dated 2003).

Columns and labels:
[1] = Relative plasma concentration of OMEPRAZOLE in male rat after oral administration;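 note: Sprague-Dawley rats fasted one day with water available, dosed orally with prodrug compounds, OMEPRAZOLE quantified by HPLC in plasma from serial blood draws, control given OMEPRAZOLE itself orally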
[2] = tested on: gastric acid secretion of the conscious male rat; test: Inhibitory effect on gastric acid secretion of the conscious male rat at timed intervals after oral administration; format: in vivo; details: between 5-8 hours after oral administration, 10 μmole/kg, histamine and carbachol stimulated, listed as 2-{4-[(5-methoxy-2-{[(3,5-dimethyl-4-methoxy-2-pyridyl)methyl]sulfinyl } benzimi)

2-{4-[(5-methoxy-2-{[(3,5-dimethyl-4-methoxy-2-pyridyl)methyl]sulfinyl}benzimidazol-1-yl)sulfonyl]phenoxy}-N-(2-pyridyl)acetamide and 2-{4-[(6-methoxy-2-{[(3.5-dimethyl-4-methoxy-2-pyridyl)methyl]sulfinyl}benzimidazol-1-yl)sulfonyl]phenoxy}-N-(2-pyridyl)acetamide [Example 33]
Relative concentration of OMEPRAZOLE released in the plasma ([1]; 20 min after oral administration, male rat, examples 2 mg/kg, OMEPRAZOLE 4 mg/kg): 2.5 arbitrary unit | Relative concentration of OMEPRAZOLE released in the plasma ([1]; 40 min after oral administration, male rat, examples 2 mg/kg, OMEPRAZOLE 4 mg/kg): 34 arbitrary unit | Relative concentration of OMEPRAZOLE released in the plasma ([1]; 60 min after oral administration, male rat, examples 2 mg/kg, OMEPRAZOLE 4 mg/kg): 13 arbitrary unit | Relative concentration of OMEPRAZOLE released in the plasma ([1]; 80 min after oral administration, male rat, examples 2 mg/kg, OMEPRAZOLE 4 mg/kg): 4 arbitrary unit | Relative concentration of OMEPRAZOLE released in the plasma ([1]; 100 min after oral administration, male rat, examples 2 mg/kg, OMEPRAZOLE 4 mg/kg): 2 arbitrary unit | Relative concentration of OMEPRAZOLE released in the plasma ([1]; 120 min after oral administration, male rat, examples 2 mg/kg, OMEPRAZOLE 4 mg/kg): 2 arbitrary unit | Relative concentration of OMEPRAZOLE released in the plasma ([1]; 140 min after oral administration, male rat, 2 mg/kg): 1.5 arbitrary unit | Relative concentration of OMEPRAZOLE released in the plasma ([1]; 160 min after oral administration, male rat, 2 mg/kg): 1 arbitrary unit | Relative concentration of OMEPRAZOLE released in the plasma ([1]; 180 min after oral administration, male rat, 2 mg/kg): 1 arbitrary unit | Relative concentration of OMEPRAZOLE released in the plasma ([1]; 210 min after oral administration, male rat, 2 mg/kg): 1 arbitrary unit | Relative concentration of OMEPRAZOLE released in the plasma ([1]; 240 min after oral administration, male rat, 2 mg/kg): 1 arbitrary unit | Relative concentration of OMEPRAZOLE released in the plasma ([1]; 270 min after oral administration, male rat, 2 mg/kg): 0.5 arbitrary unit | Relative concentration of OMEPRAZOLE released in the plasma ([1]; 300 min after oral administration, male rat, 2 mg/kg): 0.5 arbitrary unit | Relative concentration of OMEPRAZOLE released in the plasma ([1]; 330 min after oral administration, male rat, 2 mg/kg): 0.3 arbitrary unit | Relative concentration of OMEPRAZOLE released in the plasma ([1]; 360 min after oral administration, male rat, 2 mg/kg): 0.3 arbitrary unit | Relative concentration of OMEPRAZOLE released in the plasma ([1]; 390 min after oral administration, male rat, 2 mg/kg): 0.2 arbitrary unit | Relative concentration of OMEPRAZOLE released in the plasma ([1]; 430 min after oral administration, male rat, 2 mg/kg): 0.1 arbitrary unit | Bioavailability after oral administration (comparison with OMEPRAZOLE) ([1]; oral administration, male rat): much higher than that of OMEPRAZOLE | time for which OMEPRAZOLE was continuously released to the plasma ([1]; orally administrated to male rat): more than 4 hours

2-{4-[(5-methoxy-2-{[(3.5-dimethyl-4-methoxy-2-pyridyl)methyl]sulfinyl}benzimidazol-1-yl)sulfonyl]phenoxy}acetamide and 2-{4-[(6-methoxy-2-{[(3,5-dimethyl-4-methoxy-2-pyridyl)methyl]sulfinyl}benzimidazol-1-yl)sulfonyl]phenoxy}acetamide [Example 53]
% inhibition of gastric acid secretion [2]: 65%
